AlphaSeq binding of Ab-14 heavy chain variants to a spike HR2 peptide

Source: Li et al. 2023 (doi:10.1038/s41467-023-39022-2), MIT Lincoln Laboratory and A-Alpha Bio; data file from the FLAb repository.

Target peptide (SARS-CoV-2 spike, HR2 region): PDVDLGDISGINAS

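The variants were designed computationally from a first round of random CDR variants and then made and measured. Their group label is 14H_GPLM_Gibbs (GPLM: also part of the Gaussian process libraries; Gibbs: Gibbs sampling; a sequence that several methods proposed may carry one label only). In AlphaSeq, yeast of one mating type display the scFv and yeast of the other type display the target. Mating (16 h, 30 °C) was followed by selection of diploids and sequencing of their barcodes. Read counts were normalised to the haploid input and turned into Kd by a linear fit to BCL2-family pairs of known affinity, for each replicate. The assay was run in six technical replicates.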

Ab-14 is the parent antibody, in scFv form: VH, then a (GGGGS)3 linker, then VL. The light chain is unchanged in all variants.
VH: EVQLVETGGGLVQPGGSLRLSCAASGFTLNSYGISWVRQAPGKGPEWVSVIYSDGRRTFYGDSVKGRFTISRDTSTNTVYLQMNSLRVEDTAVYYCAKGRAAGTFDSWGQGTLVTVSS
VL: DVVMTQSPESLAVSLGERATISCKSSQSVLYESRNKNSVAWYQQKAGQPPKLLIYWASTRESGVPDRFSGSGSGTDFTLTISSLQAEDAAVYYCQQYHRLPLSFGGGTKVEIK

Substitutions are numbered in sequence along the VH above, starting at 1 (not Kabat).
The read-out is the apparent dissociation constant on a log10 scale (nM): the lower, the stronger.
"n.d." marks a missing value. The strain was present, yet no cells mated with the target were sequenced in that replicate, which points to weak or no binding.
As a blank, each scFv also met three strains without target: over all heavy chain designs, 1% of these pairings were detected, typically at 2.08 and seldom below 0.84. The control count says in how many pairings with the empty strains this scFv gave a signal, with their mean in brackets.

changes | log10 Kd (nM) by replicate | empty controls
T28E/R100Q/A101V | 0.93 0.53 0.60 0.53 1.26 0.71 | 0 of 18
F27Y/T28S/S31E/A101T | 0.32 -0.05 0.27 -0.53 0.11 -0.10 | 0 of 18
T28E/S31D/G61I/R100K | 1.19 n.d. 0.62 0.24 n.d. 1.14 | 0 of 18
G26H/T28Q/S31E/A101T | n.d. n.d. n.d. n.d. n.d. n.d. | 0 of 18
T28E/R100W/A101V | 1.86 1.07 0.97 0.87 1.27 1.33 | 0 of 18
T28N/R100N/A101T | -0.38 0.14 -0.23 -0.53 -0.24 -0.38 | 1 of 18 (2.76)
T28N/R100Q/A101I | 0.93 0.84 0.71 0.33 0.40 0.80 | 0 of 18
T28S/G61V/R100G/A101V | 0.57 0.70 1.41 1.12 0.32 1.30 | 0 of 18
G26P/T28S/S31E/A101T | 0.17 -0.08 -0.50 0.02 -0.28 0.75 | 0 of 18
T28S/G61S/S63D/R100N | -0.06 0.04 -0.20 -0.19 -0.34 0.16 | 0 of 18
T28W/S53A/R100E | 1.24 n.d. 0.84 -0.11 n.d. n.d. | 0 of 18
T28E/G61A/A101Q | 0.64 0.97 0.30 0.63 0.73 0.54 | 0 of 18
T28H/G61A/R100K/A101V | 1.06 -0.07 0.44 1.61 0.01 0.24 | 0 of 18
T28S/S31E/A101T/S107Q | -0.55 -0.19 -0.32 -0.60 -0.30 -0.27 | 1 of 18 (2.19)
R56K/G61I/R100Q | n.d. 1.28 0.78 2.50 n.d. n.d. | 0 of 18
S31E/R100K/A101Q | -0.30 -0.50 -0.45 -0.53 -0.87 -0.64 | 0 of 18
T28S/S31E/R100W/A101T | 1.55 1.66 3.03 1.53 1.24 0.36 | 0 of 18
T28S/G61A/A101Q/S107T | 0.14 0.70 n.d. n.d. -0.12 1.62 | 0 of 18
T28N/G61A/S63A/A101T | 0.20 -0.02 0.03 -0.09 0.14 0.31 | 1 of 18 (1.86)
T28S/G61T/R100K/A101E | n.d. n.d. n.d. n.d. n.d. n.d. | 1 of 18 (1.21)
T28S/S31M/S63Q/A101T | n.d. n.d. n.d. 0.67 1.18 2.03 | 0 of 18
R56M/A101V/S107Q | n.d. n.d. n.d. n.d. n.d. n.d. | 0 of 18
T28V/G61I/R100Q | n.d. n.d. n.d. n.d. n.d. n.d. | 0 of 18
T28L/S31D/R100K/A101T | n.d. n.d. n.d. n.d. n.d. n.d. | 0 of 18
S63A/R100E/S107K | n.d. 0.46 n.d. n.d. n.d. n.d. | 0 of 18
T28S/F59A/A101N | 0.27 -0.14 -0.40 -0.01 -0.22 -0.38 | 0 of 18
G61K/R100K/A101E/S107T | n.d. n.d. n.d. n.d. n.d. n.d. | 2 of 18 (1.90)
T28D/G61V/R100V | 0.36 0.48 0.17 0.21 0.23 0.26 | 0 of 18
T28D/R100N/A101T | 1.92 0.29 0.34 0.24 -0.07 0.53 | 0 of 18
R56K/G61I/R100K | n.d. n.d. n.d. n.d. n.d. n.d. | 1 of 18 (1.33)
G61S/R100K/A101E/S107T | -0.06 -0.14 -0.48 -0.43 -0.37 -0.58 | 1 of 18 (2.72)
F59A/G61A | 0.69 0.60 0.87 1.18 0.52 0.47 | 0 of 18
T28D/R100K/A101T/S107Q | 0.67 0.58 0.70 1.65 2.39 0.91 | 0 of 18
T28E/R100E/S107Q | 0.62 -0.33 n.d. -0.31 n.d. n.d. | 0 of 18
T28E/G61K/R100Q/A101T | 0.64 0.88 0.07 1.35 0.31 0.23 | 0 of 18
G26K/T28D/G61S/A101T | 0.17 0.12 0.40 0.63 0.40 0.53 | 0 of 18

The first 3 entries again:

changes | log10 Kd (nM) by replicate | empty controls
T28E/R100Q/A101V | 0.93 0.53 0.60 0.53 1.26 0.71 | 0 of 18
F27Y/T28S/S31E/A101T | 0.32 -0.05 0.27 -0.53 0.11 -0.10 | 0 of 18
T28E/S31D/G61I/R100K | 1.19 n.d. 0.62 0.24 n.d. 1.14 | 0 of 18

The parent sequence was in this pool as ten entries: three were never detected, three once, and four in most replicates, with averages from 0.34 to 2.37.
The range of this assay differs from that of the first round, and the authors advise against merging the two.
The authors' rule: three or more of the six replicates give a measured affinity, fewer mean a poor binder.